Target: Human immunodeficiency virus type 1 protease (Human immunodeficiency virus 1, UniProt Q72874)
Assay: Inhibitory activity against HIV protease at pH 6.2

CC(C)c1ccccc1Sc1c(O)cc(-c2ccccc2)oc1=O
IC50: 700 nM

— ChEMBL document CHEMBL1130235, “4-hydroxy-5,6-dihydropyrones. 2. Potent non-peptide inhibitors of HIV protease” (J Med Chem, 1997)
